Measurements reported in patent publication US5610282A (The United States of America as represented by the …, priority 1995, dated 1997).

Protein sequences, listed by entry. Tags and fused reporters are not part of them.
UniProt P18901, whole entry: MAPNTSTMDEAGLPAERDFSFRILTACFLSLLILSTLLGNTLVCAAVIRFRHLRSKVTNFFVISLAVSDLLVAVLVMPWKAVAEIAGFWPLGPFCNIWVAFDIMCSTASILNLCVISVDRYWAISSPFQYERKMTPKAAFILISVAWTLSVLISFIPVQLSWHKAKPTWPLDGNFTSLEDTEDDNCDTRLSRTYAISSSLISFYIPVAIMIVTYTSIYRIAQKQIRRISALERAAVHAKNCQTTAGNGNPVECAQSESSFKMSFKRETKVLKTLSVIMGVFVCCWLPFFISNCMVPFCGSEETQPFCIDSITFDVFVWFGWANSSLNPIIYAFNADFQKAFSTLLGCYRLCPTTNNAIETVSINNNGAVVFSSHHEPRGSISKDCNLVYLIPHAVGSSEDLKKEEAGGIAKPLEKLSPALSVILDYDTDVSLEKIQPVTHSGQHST

Molecular target: D1 dopamine receptor (Rattus norvegicus, UniProt P18901)
Assay: biochemical
Experimental: Expression studies, A full-length cDNA insert, including the multiple cloning site of the λ ZAP II vector, was amplified from the purified λ phage clone using T3 and T7 promoter primers and PCR as described above. […] Competent DH5α cells were transformed and clones containing the appropriate cDNA insert were used for large-scale plasmid preparations via the CsCl gradient purification method. […] The cells were treated with 3 mM sodium butyrate after 48 hours and were harvested after 72 hours.
(ii) Competition analysis of various dopaminergic ligands.

O=C(CCCN1CCC2(CC1)C(=O)NCN2c1ccccc1)c1ccc(F)cc1 [spiperone]
Ki: 290 ± 7 nM
